Data published in PubChem BioAssay AID720646 (Broad Institute, 2013).
The list shows a part of the results, in another mix than the full data. The source made the active and inactive calls.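 The calls were made as follows: active = fitted rise in melting shift crosses a set limit at or below the top valid dose tested; inconclusive = flat fit at mid-level activity, or a poor quality fit; inactive = the rest.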

The chains behind the UniProt entries cited, without tags or fusion partners.
UniProt Q9HCT0, whole entry: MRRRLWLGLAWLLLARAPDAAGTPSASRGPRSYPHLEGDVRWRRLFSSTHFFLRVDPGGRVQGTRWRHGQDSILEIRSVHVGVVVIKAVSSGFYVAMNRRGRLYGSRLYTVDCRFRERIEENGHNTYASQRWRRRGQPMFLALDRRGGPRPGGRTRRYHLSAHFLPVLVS

target: Fibroblast growth factor 22 (Homo sapiens) (UniProt Q9HCT0); assay: FGF22 melting temperature shift by ligands – biophysical, thermal shift, cherry-pick retest, FGF22 synaptogenesis inhibitor project, dose response (AID 720646); settings: recombinant FGF22 thermal shift, SYPRO orange fluorescence; at 38 µM (top of the series)

Row | Compound | thermal shift activity
1 | CN(Cc1cccnc1)C(=O)COc1ccc(Cl)c(Cl)c1.O=[N+]([O-])c1cc([N+](=O)[O-])c(O)c([N+](=O)[O-])c1 | inactive: 0.026%
2 | CCN(CC)CCCNc1ccccc1[N+](=O)[O-].O=[N+]([O-])c1cc([N+](=O)[O-])c(O)c([N+](=O)[O-])c1 | inactive: -0.077%
